Laboratory results from patent US20060160798A1, “Viral polymerase inhibitors” (Boehringer Ingelheim (Canada) Ltd., priority 2001, published 2006).

biological target: hepatitis C virus RNA dependant polymerase (NS5B) (Hepatitis C virus genotype 1b, UniProt P26663); experiment: biochemical; conditions: IC50, Table 6

| Structure (SMILES) | IC50 [nM] |
| --- | --- |
| CCCNc1nc(-c2c(C3CCCC3)c3ccc(C(=O)NC4(C(=O)Nc5ccc(/C=C/C(=O)O)cc5)CCC4)cc3n2C)cs1 [Entry 6076] | < 500 |
| COCCNc1nc(-c2c(C3CCCC3)c3ccc(C(=O)NC4(C(=O)Nc5ccc(/C=C/C(=O)O)cc5)CCC4)cc3n2C)cs1 [Entry 6077] | < 500 |
| Cn1c(-c2csc(NCCN3CCCCC3)n2)c(C2CCCC2)c2ccc(C(=O)NC3(C(=O)Nc4ccc(/C=C/C(=O)O)cc4)CCC3)cc21 [Entry 6078] | < 500 |
| CC(C)C(=O)Nc1nc(-c2c(C3CCCC3)c3ccc(C(=O)NC4(C(=O)Nc5ccc(/C=C/C(=O)O)cc5)CCC4)cc3n2C)cs1 [Entry 6079] | < 500 |
| Cn1c(-c2csc(NC(=O)CC(C)(C)C)n2)c(C2CCCC2)c2ccc(C(=O)NC3(C(=O)Nc4ccc(/C=C/C(=O)O)cc4)CCC3)cc21 [Entry 6080] | < 500 |
| Cn1c(-c2csc(NC(=O)C(C)(C)C)n2)c(C2CCCC2)c2ccc(C(=O)NC3(C(=O)Nc4ccc(/C=C/C(=O)O)cc4)CCC3)cc21 [Entry 6081] | < 500 |
| CN(C)CCNc1nc(-c2c(C3CCCC3)c3ccc(C(=O)NC4(C(=O)Nc5ccc(/C=C/C(=O)O)cc5)CCC4)cc3n2C)cs1 [Entry 6082] | < 500 |
| Cn1c(-c2cocn2)c(C2CCCC2)c2ccc(C(=O)NC3(C(=O)Nc4ccc(/C=C/C(=O)O)cc4)CCC3)cc21 [Entry 6083] | < 500 |
| C=Cc1c(C2CCCC2)c2ccc(C(=O)NC3(C(=O)Nc4ccc(/C=C/C(=O)O)cc4)CCC3)cc2n1C [Entry 6084] | < 500 |
| Cn1c(-c2cscn2)c(C2CCCC2)c2ccc(C(=O)NC3(C(=O)Nc4ccc(/C=C/C(=O)O)cc4)CCCC3)cc21 [Entry 6085] | < 500 |
| CC(=O)Nc1nc(-c2c(C3CCCC3)c3ccc(C(=O)NC4(C(=O)Nc5ccc(/C=C/C(=O)O)cc5)CCCC4)cc3n2C)cs1 [Entry 6086] | < 500 |
| CNc1nc(-c2c(C3CCCC3)c3ccc(C(=O)NC4(C(=O)Nc5ccc(/C=C/C(=O)O)cc5)CCCC4)cc3n2C)cs1 [Entry 6087] | < 500 |
| CCNc1nc(-c2c(C3CCCC3)c3ccc(C(=O)NC4(C(=O)Nc5ccc(/C=C/C(=O)O)cc5)CCCC4)cc3n2C)cs1 [Entry 6088] | < 500 |
| Cn1c(-c2csc(N)n2)c(C2CCCC2)c2ccc(C(=O)NC3(C(=O)Nc4ccc(/C=C/C(=O)O)cc4)CCCC3)cc21 [Entry 6089] | < 500 |
| Cc1nc(-c2c(C3CCCC3)c3ccc(C(=O)NC4(C(=O)Nc5ccc(/C=C/C(=O)O)cc5)CCCC4)cc3n2C)cs1 [Entry 6090] | < 500 |
| CCCNc1nc(-c2c(C3CCCC3)c3ccc(C(=O)NC4(C(=O)Nc5ccc(/C=C/C(=O)O)cc5)CCCC4)cc3n2C)cs1 [Entry 6091] | < 500 |
| COCCNc1nc(-c2c(C3CCCC3)c3ccc(C(=O)NC4(C(=O)Nc5ccc(/C=C/C(=O)O)cc5)CCCC4)cc3n2C)cs1 [Entry 6092] | < 500 |
| Cn1c(-c2csc(NCCN3CCCCC3)n2)c(C2CCCC2)c2ccc(C(=O)NC3(C(=O)Nc4ccc(/C=C/C(=O)O)cc4)CCCC3)cc21 [Entry 6093] | < 500 |
| CC(C)C(=O)Nc1nc(-c2c(C3CCCC3)c3ccc(C(=O)NC4(C(=O)Nc5ccc(/C=C/C(=O)O)cc5)CCCC4)cc3n2C)cs1 [Entry 6094] | < 500 |
| Cn1c(-c2csc(NC(=O)CC(C)(C)C)n2)c(C2CCCC2)c2ccc(C(=O)NC3(C(=O)Nc4ccc(/C=C/C(=O)O)cc4)CCCC3)cc21 [Entry 6095] | < 500 |
| Cn1c(-c2csc(NC(=O)C(C)(C)C)n2)c(C2CCCC2)c2ccc(C(=O)NC3(C(=O)Nc4ccc(/C=C/C(=O)O)cc4)CCCC3)cc21 [Entry 6096] | < 500 |

| Structure (SMILES) | IC50 [nM] |
| --- | --- |
| CN(C)CCNc1nc(-c2c(C3CCCC3)c3ccc(C(=O)NC4(C(=O)Nc5ccc(/C=C/C(=O)O)cc5)CCCC4)cc3n2C)cs1 [Entry 6097] | < 500 |
| Cn1c(-c2cocn2)c(C2CCCC2)c2ccc(C(=O)NC3(C(=O)Nc4ccc(/C=C/C(=O)O)cc4)CCCC3)cc21 [Entry 6098] | < 500 |
| C=Cc1c(C2CCCC2)c2ccc(C(=O)NC3(C(=O)Nc4ccc(/C=C/C(=O)O)cc4)CCCC3)cc2n1C [Entry 6099] | < 500 |
| CN1CCC(NC(=O)c2ccc3c(C4CCCC4)c(-c4nccs4)n(C)c3c2)(C(=O)Nc2ccc(/C=C/C(=O)O)cc2)CC1 [Entry 6101] | < 500 |
| CN1CCC(NC(=O)c2ccc3c(C4CCCC4)c(-c4cccc(N)c4)n(C)c3c2)(C(=O)Nc2ccc(/C=C/C(=O)O)cc2)CC1 [Entry 6102] | < 500 |
| Cc1ccc(-c2c(C3CCCC3)c3ccc(C(=O)NC4(C(=O)Nc5ccc(/C=C/C(=O)O)cc5)CCN(C)CC4)cc3n2C)nc1 [Entry 6103] | < 500 |
| CNC(=O)c1c(C2CCCC2)c2ccc(C(=O)NC3(C(=O)Nc4ccc(/C=C/C(=O)O)cc4)CCCC3)cc2n1C [Entry 6106] | 500 to 1000 |
| CN(C)C(=O)c1c(C2CCCC2)c2ccc(C(=O)NC3(C(=O)Nc4ccc(/C=C/C(=O)O)cc4)CCCC3)cc2n1C [Entry 6107] | 1000 to 10000 |
| Cn1c(C(=O)NCc2ccccc2)c(C2CCCC2)c2ccc(C(=O)NC3(C(=O)Nc4ccc(/C=C/C(=O)O)cc4)CCCC3)cc21 [Entry 6110] | 1000 to 10000 |
| Cn1c(-c2ncccn2)c(C2CCCC2)c2ccc(C(=O)NC3(C(=O)Nc4ccc(/C=C/C(=O)O)cc4)CCC3)cc21 [Entry 6111] | < 500 |
| Cn1c(C(=O)Nc2ccccc2)c(C2CCCC2)c2ccc(C(=O)NC(C)(C)C(=O)Nc3ccc(/C=C/C(=O)O)cc3)cc21 [Entry 6112] | 500 to 1000 |
| Cn1c(C(N)=O)c(C2CCCC2)c2ccc(C(=O)NC(C)(C)C(=O)Nc3ccc(/C=C/C(=O)O)cc3)cc21 [Entry 6113] | 500 to 1000 |
| Cc1ccc(-c2c(C3CCCC3)c3ccc(C(=O)N[C@@]4(C(=O)Nc5ccc(/C=C/C(=O)O)cc5)CCN(C)C4)cc3n2C)nc1 [Entry 6114] | < 500 |
| Cc1ccc(-c2c(C3CCCC3)c3ccc(C(=O)N[C@@]4(C(=O)Nc5ccc(/C=C/C(=O)O)cc5)CCN(C)C4)cc3n2C)cn1 [Entry 6115] | < 500 |
| Cc1cccc(-c2c(C3CCCC3)c3ccc(C(=O)N[C@@]4(C(=O)Nc5ccc(/C=C/C(=O)O)cc5)CCN(C)C4)cc3n2C)n1 [Entry 6116] | < 500 |
| Cn1cc(C2CCCC2)c2ccc(C(=O)NC3(C(=O)Nc4ccc(/C=C/C(=O)O)cc4)CCC3)cc21 [Entry 6119] | 1000 to 10000 |
| Cn1c(Br)c(C2CCCC2)c2ccc(C(=O)NC3(C(=O)Nc4ccc(/C=C/C(=O)O)cc4)CCC3)cc21 [Entry 6120] | 500 to 1000 |
| O=C(O)/C=C/c1ccc(NC(=O)C2(NC(=O)c3ccc4c(C5CCCC5)c(-c5ccccn5)[nH]c4c3)CCC2)cc1 [Entry 6121] | 500 to 1000 |
| COc1ccc(-c2c(C3CCCC3)c3ccc(C(=O)NC4(C(=O)Nc5ccc(/C=C/C(=O)O)cc5)CCC4)cc3n2C)nc1 [Entry 6123] | < 500 |
| Cn1c(-c2ccccn2)c(C2CCCC2)c2ccc(C(=O)N[C@@]3(C(=O)Nc4ccc(/C=C/C(=O)O)cc4)CCN(S(C)(=O)=O)C3)cc21 [Entry 6124] | < 500 |
| Cn1c(-c2ccccn2)c(C2CCCC2)c2ccc(C(=O)NC3(C(=O)Nc4ccc(/C=C/C(=O)O)cc4)CCN(S(C)(=O)=O)CC3)cc21 [Entry 6125] | < 500 |

same assay, conditions: IC50, Table 7

| Structure (SMILES) | IC50 [nM] |
| --- | --- |
| Cc1cc(NC(=O)C2(NC(=O)c3ccc4c(C5CCCC5)c(-c5ccccn5)n(C)c4c3)CCC2)ccc1/C=C/C(=O)O [Entry 7001] | < 500 |
| Cn1c(-c2ccccn2)c(C2CCCC2)c2ccc(C(=O)NC3(C(=O)NCc4ccc(C(=O)O)cc4)CCC3)cc21 [Entry 7003] | 1000 to 10000 |
| Cn1c(-c2ccccn2)c(C2CCCC2)c2ccc(C(=O)NC3(C(=O)Nc4ccc(-c5ccc(C(=O)O)s5)cc4)CCC3)cc21 [Entry 7004] | 500 to 1000 |
| Cn1c(-c2ccccn2)c(C2CCCC2)c2ccc(C(=O)NC3(C(=O)Nc4ccc5oc(C(=O)O)cc5c4)CCC3)cc21 [Entry 7006] | < 500 |
| Cn1c(-c2ccccn2)c(C2CCCC2)c2ccc(C(=O)NC3(C(=O)Nc4ccc5c(Cl)c(C(=O)O)sc5c4)CCC3)cc21 [Entry 7007] | < 500 |
| Cn1c(C(=O)O)cc2cc(NC(=O)C3(NC(=O)c4ccc5c(C6CCCC6)c(-c6nccs6)n(C)c5c4)CCC3)ccc21 [Entry 7008] | < 500 |
| Cn1c(-c2ccccn2)c(C2CCCC2)c2ccc(C(=O)NC3(C(=O)Nc4ccc(-c5ccc(C(=O)O)o5)cc4)CCC3)cc21 [Entry 7009] | < 500 |
| Cn1c(-c2ccccn2)c(C2CCCC2)c2ccc(C(=O)NC3(C(=O)Nc4ccc(-c5ccc(C(=O)O)o5)cc4)CCCC3)cc21 [Entry 7010] | < 500 |
| C/C(=C\c1ccc(NC(=O)C2(NC(=O)c3ccc4c(C5CCCC5)c(-c5ccccn5)n(C)c4c3)CCC2)cc1)C(=O)O [Entry 7011] | < 500 |
| Cn1c(C(=O)O)cc2cc(NC(=O)C3(NC(=O)c4ccc5c(C6CCCC6)c(-c6ccccn6)n(C)c5c4)CCC3)ccc21 [Entry 7012] | < 500 |
| Cn1c(-c2cccc(N)c2)c(C2CCCC2)c2ccc(C(=O)NC3(C(=O)Nc4ccc(-c5ccc(C(=O)O)o5)cc4)CCCC3)cc21 [Entry 7013] | < 500 |
| C/C(=C\c1ccc(NC(=O)C2(NC(=O)c3ccc4c(C5CCCC5)c(-c5cccc(N)c5)n(C)c4c3)CCC2)cc1)C(=O)O [Entry 7014] | < 500 |
| Cn1c(C(=O)O)cc2cc(NC(=O)C3(NC(=O)c4ccc5c(C6CCCC6)c(-c6cccc(N)c6)n(C)c5c4)CCC3)ccc21 [Entry 7015] | < 500 |
| Cn1c(-c2ccc(N)cc2)c(C2CCCC2)c2ccc(C(=O)NC3(C(=O)Nc4ccc(-c5ccc(C(=O)O)o5)cc4)CCC3)cc21 [Entry 7016] | < 500 |
| Cn1c(-c2ccc(N)cc2)c(C2CCCC2)c2ccc(C(=O)NC3(C(=O)Nc4ccc(-c5ccc(C(=O)O)o5)cc4)CCCC3)cc21 [Entry 7017] | < 500 |
| C/C(=C\c1ccc(NC(=O)C2(NC(=O)c3ccc4c(C5CCCC5)c(-c5ccc(N)cc5)n(C)c4c3)CCC2)cc1)C(=O)O [Entry 7018] | < 500 |
| Cn1c(-c2ccsc2)c(C2CCCC2)c2ccc(C(=O)NC3(C(=O)Nc4ccc(-c5ccc(C(=O)O)o5)cc4)CCC3)cc21 [Entry 7019] | < 500 |
| Cc1cccc(-c2c(C3CCCC3)c3ccc(C(=O)NC4(C(=O)Nc5ccc(-c6ccc(C(=O)O)o6)cc5)CCC4)cc3n2C)n1 [Entry 7020] | < 500 |
| Cc1cccc(-c2c(C3CCCC3)c3ccc(C(=O)NC4(C(=O)Nc5ccc(-c6ccc(C(=O)O)o6)cc5)CCCC4)cc3n2C)n1 [Entry 7021] | < 500 |
